From ChEMBL document CHEMBL5053560, “Nanoparticular Inhibitors of Flavivirus Proteases from Zika, West Nile and Dengue Virus Are Cell-Permeable Antivirals” (ACS Med Chem Lett, 2021)

Test system: Dengue virus
Experiment: Antiviral activity against Dengue virus infected in human Huh-7 cells assessed as inhibition of viral replication at 12.5 uM measured after 48 hrs by plaque assay relative to control
Assay type: functional

`NC(=O)c1ncn([C@@H]2O[C@H](CO)[C@@H](O)[C@H]2O)n1` [RIBAVIRIN] gave an inhibition at 12.5 µM of 75%.
